Assay results reported in ChEMBL document CHEMBL5634116, “Strategies for developing retinoic acid receptor alpha-selective antagonists as novel agents for male contraception” (Eur J Med Chem, 2023).

By UniProt entry, the sequences of proteins in these tests, tags left out.
UniProt P10276, whole entry: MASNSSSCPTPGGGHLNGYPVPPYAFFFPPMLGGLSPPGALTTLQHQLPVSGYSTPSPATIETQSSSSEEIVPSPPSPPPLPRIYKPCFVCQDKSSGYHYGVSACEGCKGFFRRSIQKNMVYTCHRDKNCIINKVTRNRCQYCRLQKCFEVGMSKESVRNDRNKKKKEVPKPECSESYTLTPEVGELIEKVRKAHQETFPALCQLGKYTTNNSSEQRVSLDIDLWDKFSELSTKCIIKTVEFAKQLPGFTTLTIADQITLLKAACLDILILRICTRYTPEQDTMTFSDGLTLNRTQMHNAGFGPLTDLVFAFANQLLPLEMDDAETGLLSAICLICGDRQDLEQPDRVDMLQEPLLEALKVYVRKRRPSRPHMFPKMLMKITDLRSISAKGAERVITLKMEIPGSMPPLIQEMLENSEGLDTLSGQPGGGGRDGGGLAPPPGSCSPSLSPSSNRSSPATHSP
UniProt P10826, whole entry: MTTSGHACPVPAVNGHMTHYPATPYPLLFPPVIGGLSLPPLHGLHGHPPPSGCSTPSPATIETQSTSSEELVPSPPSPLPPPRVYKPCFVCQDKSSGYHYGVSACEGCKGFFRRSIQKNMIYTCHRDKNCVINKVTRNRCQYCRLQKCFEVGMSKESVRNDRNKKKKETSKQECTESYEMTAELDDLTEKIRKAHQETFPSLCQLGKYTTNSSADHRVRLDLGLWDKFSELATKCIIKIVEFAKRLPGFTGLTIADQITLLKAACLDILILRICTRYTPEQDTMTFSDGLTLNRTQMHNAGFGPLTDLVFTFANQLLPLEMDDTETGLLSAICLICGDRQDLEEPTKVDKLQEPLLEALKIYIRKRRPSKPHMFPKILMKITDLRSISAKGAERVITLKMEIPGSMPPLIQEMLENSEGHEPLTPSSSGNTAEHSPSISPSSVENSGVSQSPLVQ
UniProt P13631, whole entry: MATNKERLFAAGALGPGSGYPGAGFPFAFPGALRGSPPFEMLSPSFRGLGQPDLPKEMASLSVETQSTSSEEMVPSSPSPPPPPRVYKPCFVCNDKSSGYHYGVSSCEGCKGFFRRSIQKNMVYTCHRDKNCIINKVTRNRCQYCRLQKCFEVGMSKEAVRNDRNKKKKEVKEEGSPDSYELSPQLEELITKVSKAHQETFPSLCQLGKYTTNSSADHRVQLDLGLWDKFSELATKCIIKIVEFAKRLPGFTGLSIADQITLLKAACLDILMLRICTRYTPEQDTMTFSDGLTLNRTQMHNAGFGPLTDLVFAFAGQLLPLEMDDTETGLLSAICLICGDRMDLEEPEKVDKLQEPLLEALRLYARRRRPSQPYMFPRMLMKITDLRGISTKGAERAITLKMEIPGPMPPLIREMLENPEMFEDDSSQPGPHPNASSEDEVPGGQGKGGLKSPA

Columns and labels:
[1] = target: Retinoic acid receptor alpha (Homo sapiens, UniProt P10276); test: Agonist activity at recombinant human RAR-alpha expressed in mammalian cells by luciferase reporter gene based transactivation assay relative to control; type: cell-based
Procedure, shortened: (§1)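 Transactivation in proprietary reporter cells expressing recombinant human RAR subtype with RARE-linked beetle luciferase. Compounds in DMSO (final 0.4%), 8-point dose response in triplicate; cells added, incubated overnight at 37 °C, 5% CO2, then luciferase reagent 30 min r.t., luminescence read.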

[2] = target: Retinoic acid receptor beta (Homo sapiens, UniProt P10826); test: Agonist activity at recombinant human RAR-beta expressed in mammalian cells by luciferase reporter gene based transactivation assay relative to control; type: cell-based; conditions: filed as agonist; procedure, shortened: as §1
[3] = target: Retinoic acid receptor gamma (Homo sapiens, UniProt P13631); test: Agonist activity at recombinant human RAR-gamma expressed in mammalian cells by luciferase reporter gene based transactivation assay relative to control; type: cell-based; procedure, shortened: as §1
in vitro = conditions: human, Caco-2

Work on `Cc1ccc(C2=CC(C)(C)Oc3ccc(C(=O)Nc4ccc(C(=O)O)cc4)cc32)cc1` yielded an Emax [1] of 0%, an Emax [2] of 65% and an Emax [3] of 22%. For the same compound, the recovery at 10 µM (in vitro) was 98%.
